## Antibody variant affinities, Ab-14 light chain, assay 1

The measurements come from Engelhart et al. 2022 (doi:10.1038/s41597-022-01779-4) through the FLAb antibody collection.

Target: peptide PDVDLGDISGINAS, taken from heptad repeat 2 (HR2) of SARS-CoV-2 spike.

Ab-14 is the parent antibody, in scFv form: VH, then a (GGGGS)3 linker, then VL. The heavy chain is unchanged in all variants.
VH: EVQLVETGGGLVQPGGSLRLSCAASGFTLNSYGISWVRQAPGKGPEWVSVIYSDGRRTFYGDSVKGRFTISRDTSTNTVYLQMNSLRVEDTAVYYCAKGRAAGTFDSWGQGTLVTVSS
VL: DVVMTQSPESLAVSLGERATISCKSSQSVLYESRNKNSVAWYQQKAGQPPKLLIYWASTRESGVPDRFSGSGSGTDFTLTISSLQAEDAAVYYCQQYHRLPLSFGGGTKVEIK

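Variants in AAYL50 differ from the parent at up to three CDR positions; double and triple changes were sampled at random. Affinity was read by AlphaSeq, a pooled yeast mating assay with surface-displayed partners. After mating in shaken culture at 30 °C for 16 h, diploids were selected and their barcode pairs sequenced. Each replicate has its own calibration line, from reference interactions of the BCL2 family. Mating was done three times.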

Each variant is given by its three light chain CDRs, as the data file delimits them; those of the parent are KSSQSVLYESRNKNSVA, WASTRES, QQYHRLPLS.
Numbers give log10(Kd / nM), so 0 is 1 nM and 3 is 1 µM. Smaller is tighter.
Replicates are averaged; those with no signal do not enter the mean.
An entry "not detected" has no value in the source: the pair was not observed among the diploids in any replicate. This suggests poor binding but is not conclusive.

| CDR-L1 | CDR-L2 | CDR-L3 | mean log10 Kd (nM) | detected | empty controls |
|---|---|---|---|---|---|
| KSSQFFLYESRNKNSVI | WASTRES | QQYHRLPLS | not detected | 0/3 | 2/9 |
| KSSQSVLYESRNKNSVA | WISTRES | QQYERYPLS | 5.13 | 3/3 | 2/9 |
| KSSQFVLYESINKNSVA | WASTRES | QQYHRLPLS | not detected | 0/3 | 1/9 |
| KSSQSVLYESRNKNSVG | WASTREE | QQYHRLPWS | not detected | 0/3 | 3/9 |
| KSSQSVLYEKRNKNSVA | WASTRES | QQYHRCPLG | 1.77 | 3/3 | 3/9 |
| KSSQSVGYESRNKNSVA | WASTMES | QQYHRLPLG | not detected | 0/3 | 1/9 |
| KSSQSQLYESRNKNPVA | WASTREI | QQYHRLPLS | 2.80 | 3/3 | 4/9 |
| KSSQSVLYEQRNKNSVA | WASTRES | QAYHRLPLS | 1.22 | 3/3 | 1/9 |
| KSSQSVLYESDNKNSVA | RASTREI | QQYHRLPLS | -0.04 | 3/3 | 2/9 |
| KSSQSRLYESRNKNSVA | WASTRES | QQDHRLPIS | 4.10 | 3/3 | 4/9 |
| KSSQSVLYESRNKNSVA | WFSTRES | QQYHRLPNS | 5.08 | 2/3 | 1/9 |
| KSSQYYLYESRNKNSVA | FASTRES | QQYHRLPLS | 2.05 | 3/3 | 0/9 |
| KSSQSALYLSRLKNSVA | WASTRES | QQYHRLPLS | 2.37 | 3/3 | 7/9 |
| KSSTSVLYESRNKNSVA | WLSTRES | QYYHRLPLS | 5.70 | 3/3 | 6/9 |
| KSSRSVLYESRNKNSHA | WASTRES | QQYHRLWLS | not detected | 0/3 | 0/9 |
| KSSQSVLYESRNENSVA | WASTRES | QQYHRQPKS | 1.02 | 3/3 | 1/9 |
| KSSQSVLYESNNKNSAA | WASTRES | QQYHTLPLS | 3.31 | 2/3 | 0/9 |
| KSSQSVLYKSRNKNRVA | WASTNES | QQYHRLPLS | not detected | 0/3 | 2/9 |
| KSSQSPLYESRNKNSVA | WASTAES | QQFHRLPLS | not detected | 0/3 | 0/9 |
| KSSQSQLYESRNKNFVA | WASERES | QQYHRLPLS | 2.25 | 3/3 | 1/9 |
| KSSQSVLYESRNKNSWA | WLSTRES | QQYHRKPLS | 4.83 | 1/3 | 0/9 |
| KSSQSVLYESRQKNSVA | WASHRES | WQYHRLPLS | 2.49 | 3/3 | 3/9 |
| KFSQSPLYESRNKNSVS | WASTRES | QQYHRLPLS | 3.80 | 3/3 | 4/9 |
| KSIQSVLYESRNKNSVA | WASTREE | QQYRRLPLS | 1.64 | 3/3 | 0/9 |
| KSSQSYLYESRNKRSVA | WASTRES | QQYHRLPTS | not detected | 0/3 | 0/9 |
| KSSQSVCSESRNKNSVA | WASTRES | QQYHRLPLC | 5.51 | 3/3 | 8/9 |
| KSSQSVDYESRNKNSVA | WASTRRS | QYYHRLPLS | 2.00 | 3/3 | 9/9 |
| KSSQSVLSESRNKNSVA | WASTRFS | QQYHYLPLS | 2.77 | 3/3 | 2/9 |
| KPSQSVLYESRNKNSAA | WASTRES | QLYHRLPLS | not detected | 0/3 | 0/9 |
| ESSQSVLYESRNKNSVA | WVSTRES | QQYHRLPLS | 3.92 | 3/3 | 1/9 |
| KSSFWVLYESRNKNSVA | WASTRES | QLYHRLPLS | not detected | 0/3 | 2/9 |
| KCSQSVLYESRNKNSVA | WASTRES | QQYHRLPKS | not detected | 0/3 | 4/9 |
| KSSQSVLYISRQKNSVA | WASTRES | QQYWRLPLS | 3.01 | 3/3 | 2/9 |

Further variants, results first:

| mean log10 Kd (nM) | detected | empty controls | CDR-L1 | CDR-L2 | CDR-L3 |
|---|---|---|---|---|---|
| not detected | 0/3 | 1/9 | KSSQSVLYESRNKNSVI | WADTRES | QKYHRLPLS |
| 5.08 | 3/3 | 4/9 | KSSQSVLYESRNKESVP | WASTREN | QQYHRLPLS |
| 1.55 | 1/3 | 0/9 | KSKQSVLYESRVKNSVA | WASTRES | QQYERLPLS |
| 3.27 | 1/3 | 0/9 | KSSQSVLYESWNKNSVA | WASTKES | QQYTRLPLS |
| 2.94 | 2/3 | 0/9 | KSRQSVWYESRNKVSVA | WASTRES | QQYHRLPLS |
| 3.37 | 2/3 | 4/9 | KSSQSGLYESRNKNSVA | WDSTRES | QQYHRLPLS |
| 3.95 | 1/3 | 0/9 | KSSQSVLYESRRGNSVA | WASTIES | QQYHRLPLS |
| 3.77 | 2/3 | 2/9 | KSSQSVLYESRNENSVA | WYSTRES | QQYHRLPLP |
| 2.99 | 1/3 | 0/9 | KSSQSVLYESQNKNSVA | WASSRES | QQYHRLTLS |
| 2.35 | 3/3 | 2/9 | KSSQSVLDESRNKNSFA | WASTRES | QQYHILPLS |
| 5.65 | 1/3 | 0/9 | KSMQSVLYESRNKWSVA | WASPRES | QQYHRLPLS |
| 4.03 | 3/3 | 2/9 | KSSQSVLYESRNKNSTA | CASTRES | QQYHRVPLS |
| not detected | 0/3 | 0/9 | KSSQSVLYESRNKNSVA | WASTRES | SQYHMLPLW |
| not detected | 0/3 | 0/9 | KSIQSVLYESRNKNSVA | PASTRES | QQYARLPLS |
| 6.22 | 1/3 | 4/9 | TSSQSVLYESRNKNSVT | WASTRES | QQYHRLPLS |
| 1.39 | 3/3 | 3/9 | KSSQHVLDESRNKNSVA | WASTQES | QQYHRLPLS |
| not detected | 0/3 | 0/9 | KSSMSVLYESNNKNSVW | WASTRES | QQYHRLPLS |
| not detected | 0/3 | 0/9 | KSRQSVLYEYRNKNSVA | WISTRES | QQYHRLPLS |
| 4.71 | 2/3 | 3/9 | KSSQSVLYESRNKNSVA | WASTRES | QVYVRGPLS |
| not detected | 0/3 | 0/9 | FSSQSVLYESRNKNSVA | WAHTRES | QQLHRLPLS |
| 3.04 | 1/3 | 1/9 | KSSQSVYYESRNDNSVA | WASTRES | QQYHRLPKS |
| not detected | 0/3 | 0/9 | KSSQSVLYTSRNKNSVA | WASTRES | QKAHRLPLS |
| 4.24 | 3/3 | 6/9 | KSSQSVLYEIRNKNSVA | WASTRES | QQYHRLPTS |
| 2.10 | 3/3 | 2/9 | WSSQSVLYESRNKNSVN | WASCRES | QQYHRLPLS |
| not detected | 0/3 | 1/9 | KSSQSVLYESRNKNSVE | WCSTRNS | QQYHRLPLS |
| not detected | 0/3 | 0/9 | KSSQSVLYESRNKNSVA | WASTRDS | QQYHRRPLS |
| 2.28 | 3/3 | 1/9 | KSSQNVYYESRNKNSVA | WASTRES | QQYHRLPNS |
| 1.25 | 3/3 | 0/9 | KSSQSVLYESRNNNSVA | WASMRES | QQYHRLPLH |
| 4.51 | 1/3 | 3/9 | KSVQSVLYESRNKNSVA | WASTRES | QQYHQQPLS |
| not detected | 0/3 | 1/9 | RSSQSVLYESRNKNSVQ | WASTRES | QQYHRLPLI |
| not detected | 0/3 | 0/9 | KSSQSVLYESRNKNSVA | WASLRES | YQYHRLPWS |
| 3.60 | 2/3 | 0/9 | KSVASVLYESRNKNSVA | WAITRES | QQYHRLPLS |
| 1.81 | 3/3 | 2/9 | KSSQSVLIESRNKNSVA | WASTRES | QQYHRLPHS |

Excerpt, the final 8 entries:

CDR-L1	CDR-L2	CDR-L3	mean log10 Kd (nM)	detected	empty controls
KSSQSVLYESRNKNSVA	WASTRDS	QQYHRRPLS	not detected	0/3	0/9
KSSQNVYYESRNKNSVA	WASTRES	QQYHRLPNS	2.28	3/3	1/9
KSSQSVLYESRNNNSVA	WASMRES	QQYHRLPLH	1.25	3/3	0/9
KSVQSVLYESRNKNSVA	WASTRES	QQYHQQPLS	4.51	1/3	3/9
RSSQSVLYESRNKNSVQ	WASTRES	QQYHRLPLI	not detected	0/3	1/9
KSSQSVLYESRNKNSVA	WASLRES	YQYHRLPWS	not detected	0/3	0/9
KSVASVLYESRNKNSVA	WAITRES	QQYHRLPLS	3.60	2/3	0/9
KSSQSVLIESRNKNSVA	WASTRES	QQYHRLPHS	1.81	3/3	2/9

For reference, the parent read 0.65 as the reference entry and 1.68 as a member of this library.
Nonspecific signal, from three strains lacking the peptide, appeared in 18% of pairings of library AAYL50, centred on 4.19 (5% of these signals below 2.99); values are not corrected for it. Also given: how often the same scFv was detected with the empty control strains.